logP (octanol/water) values, as collected for the OPERA models

From the experimental data distributed with OPERA 2.9.

The octanol-water partition coefficient is given as log10; larger values mean a more lipophilic compound. "via" names the databases from which the curators took the value.

CCCCCCCCCCCCCCCCCC(=O)NCCC[N+](C)(C)CC(=O)OCCCCCCCCCCCCCC.[Cl-] is reported with logP (octanol/water) 5 (via eChemPortal).
C=CCn1c(=O)n(CC=C)c(=O)n(CC=C)c1=O is reported with logP (octanol/water) 1.64 (via OCHEM, eChemPortal).
C=CCOCC(O)CO (stereo not given) is reported with logP (octanol/water) 0.286 (via eChemPortal).
O=C1c2ccccc2C2=Nc3cccc4cccc(c34)N12 is reported with logP (octanol/water) 3.966 (via eChemPortal).
Cc1ccc(S(=O)(=O)O)cc1N is reported with logP (octanol/water) -1.53 (via eChemPortal).
Nc1ccc(NCCO)c([N+](=O)[O-])c1 is reported with logP (octanol/water) 0.27 (via eChemPortal).
CC(C)(C)c1cc(CO)cc(C(C)(C)C)c1O is reported with logP (octanol/water) 3.16 (via eChemPortal).
CC(C)(C)C(=O)C(Oc1ccc(Cl)cc1)n1ccnc1 (stereo not given) is reported with logP (octanol/water) 3.83 (via eChemPortal).
COc1cc(N=Nc2ccc([N+](=O)[O-])cc2)ccc1N=Nc1ccc(O)cc1 is reported with logP (octanol/water) 5.2 (via eChemPortal).
CC1=C(C(=O)O)N2C(=O)C(NC(=O)C(N)c3ccc(O)cc3)C2SC1.O (stereo not given) is reported with logP (octanol/water) -0.4 (via PubChem).
CC(C)(C)CCN is reported with logP (octanol/water) 1.72 (via OCHEM).
Brc1ccc(Oc2c(Br)cccc2Br)cc1 is reported with logP (octanol/water) 5.52 (via OCHEM).
CN(C)CCN(Cc1ccccc1)c1ccccn1 is reported with logP (octanol/water) 3.3 (via PubChem).
CCCCCCCCCCCCCCCCCC(=O)OCCOC(C)=O is reported with logP (octanol/water) 10.2 (via eChemPortal).
CC(C)CC(C)O (stereo not given) is reported with logP (octanol/water) 1.43 (via PubChem).
COc1ccc(CCC(=O)O)cc1 is reported with logP (octanol/water) 1.9 (via OCHEM).
COc1ccccc1C(=O)NS(=O)(=O)c1ccc(C(=O)NC2CC2)cc1 is reported with logP (octanol/water) -0.8 (via eChemPortal).
C=CN1CCN(C=C)C1=O is reported with logP (octanol/water) 1.2 (via eChemPortal).
C=CC(=O)OCC(C)OCC(C)OCC(C)OC(=O)C=C (stereo not given) is reported with logP (octanol/water) 2.05 (via eChemPortal).
C=CC(=O)OCC(C)CC (stereo not given) is reported with logP (octanol/water) 2.9 (via eChemPortal).
O=C(NCCN1CCOCC1)c1ccc(Cl)cc1 is reported with logP (octanol/water) 1.5 (via PubChem).
Nc1ccc(Br)cn1 is reported with logP (octanol/water) 1.39 (via OCHEM).
NC(=O)[C@@H]1CCCN1 is reported with logP (octanol/water) -1 (via eChemPortal).
CCC(C)(C)C1CCCCC1OC(C)=O (stereo not given) is reported with logP (octanol/water) 5.4 (via eChemPortal).
CC(O)COC(C)CO[C@@H]1C[C@H]2CC[C@]1(C)C2(C)C (stereo in doubt) is reported with logP (octanol/water) 4.58 (via eChemPortal).
CCCCCC/C=C/CCCCCCCCCC(=O)O is reported with logP (octanol/water) 7.64 (via OCHEM).
COc1ccc(CN2C(=O)c3ccc4c5ccc6c7c(ccc(c8ccc(c3c48)C2=O)c75)C(=O)N(Cc2ccc(OC)cc2)C6=O)cc1 is reported with logP (octanol/water) 1.6 (via eChemPortal).
COc1ccccc1NC(=O)c1cc2ccccc2cc1O is reported with logP (octanol/water) 2.9 (via eChemPortal).
CC(=O)CC(C)(C)O is reported with logP (octanol/water) -0.14 (via OCHEM).
O=C(O)CCSCCC(=O)O is reported with logP (octanol/water) 0.19 (via OCHEM, eChemPortal).
CCOC(=O)[C@H](CCc1ccccc1)N[C@@H](C)C(=O)N1Cc2cc(OC)c(OC)cc2C[C@H]1C(=O)O is reported with logP (octanol/water) 2.7 (via PubChem).
COc1cc2[nH]c(=O)c(=O)[nH]c2cc1N is reported with logP (octanol/water) -0.31 (via eChemPortal).
COCc1cc(N)ccc1N is reported with logP (octanol/water) -0.213 (via eChemPortal).
CC(CC(C)(C)C#N)c1ccccc1 (stereo not given) is reported with logP (octanol/water) 3.34 (via eChemPortal).
CC(=O)[O-].CCn1cc[n+](C)c1 is reported with logP (octanol/water) -2.25 (via eChemPortal).
O=S(=O)([N-]Cl)c1ccccc1.[Na+] is reported with logP (octanol/water) 0.14 (via eChemPortal).
Cn1nnc2c(C(N)=O)ncn2c1=O is reported with logP (octanol/water) -2.8 (via PubChem).
Cn1c(N)c2ncn(Cc3ccccc3)c2nc1=O is reported with logP (octanol/water) 0.65 (via OCHEM).
Cc1ccc(Cl)c(Nc2ccccc2C(=O)O)c1Cl is reported with logP (octanol/water) 5 (via PubChem).
CCN(CC)CC.Cc1ccc(S(=O)(=O)O)cc1 is reported with logP (octanol/water) -2.9 (via eChemPortal).
Nc1c(F)c(F)c(F)c(F)c1F is reported with logP (octanol/water) 1.86 (via OCHEM).
CCCC1CC(=O)C=C(C)C1 (stereo not given) is reported with logP (octanol/water) 2.65 (via eChemPortal).
COc1ccc(/C=C/C(=O)NCCC[N+](C)(C)CC(O)CS(=O)(=O)[O-])cc1 (stereo partly drawn) is reported with logP (octanol/water) -0.982 (via eChemPortal).
CCC(CC)CC1(C(=O)O)CCCCC1 is reported with logP (octanol/water) 4.35 (via eChemPortal).
COc1ccc(C(=O)Nc2ccc(C3=NNC(=O)CC3C)cc2[N+](=O)[O-])cc1 (stereo not given) is reported with logP (octanol/water) 3.4 (via eChemPortal).
CCOC(=O)c1cn(C2CC2)c2cc(F)c(F)cc2c1=O is reported with logP (octanol/water) 1.6 (via eChemPortal).

A selection of 3 entries from above:

{"smiles": "Cc1ccc(Cl)c(Nc2ccccc2C(=O)O)c1Cl", "logP (octanol/water)": "5", "via": "PubChem"}
{"smiles": "C=CN1CCN(C=C)C1=O", "logP (octanol/water)": "1.2", "via": "eChemPortal"}
{"smiles": "C=CCn1c(=O)n(CC=C)c(=O)n(CC=C)c1=O", "logP (octanol/water)": "1.64", "via": "OCHEM, eChemPortal"}

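These are experimental values that the OPERA curators gathered from public databases to train and test their QSAR models. One number stands for a compound and property, with no spread given. Method, purity and exact conditions of the single measurements are not given. The measured form (salt, isomer or mixture) is not always the one drawn. Some entries may be limits or estimates that an upstream database listed as plain numbers.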